Results reported in ChEMBL document CHEMBL4371086, “An irreversible inhibitor of peptidyl-prolyl cis/trans isomerase Pin1 and evaluation of cytotoxicity” (Bioorg Med Chem Lett, 2019).

The chains behind the UniProt entries cited, without tags or fusion partners.
UniProt Q13526, whole entry: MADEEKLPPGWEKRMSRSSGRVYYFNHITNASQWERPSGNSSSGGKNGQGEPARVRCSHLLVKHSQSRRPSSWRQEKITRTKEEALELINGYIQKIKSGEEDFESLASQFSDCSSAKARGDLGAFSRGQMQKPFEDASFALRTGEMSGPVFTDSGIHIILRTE

What was measured:
[1] = biological target: T1, Peptidyl-prolyl cis-trans isomerase NIMA-interacting 1 (Homo sapiens, UniProt Q13526); assay: Ratio of Kinact to Ki for irreversible inhibition of Pin1 (unknown origin)
[2] = biological target: T1, Peptidyl-prolyl cis-trans isomerase NIMA-interacting 1; assay: Binding affinity to Pin1 (unknown origin) assessed as Cys113-compound adduct formation at 88.8 uM after 2 hrs by IAA probe based LC-ESI-MS analysis

| Compound | Ratio [1] | Activity [2] |
| --- | --- | --- |
| O=C(/C=C/c1ccc2ccccc2c1)N[C@H](CCC(=O)N1CCOCC1)C(=O)O | 0.017 M⁻¹ s⁻¹ |  |
| O=C(/C=C/c1ccc2ccccc2c1)N[C@@H](CCC(=O)N1CCOCC1)C(=O)O | 0.249 M⁻¹ s⁻¹ | Active |

Active and inactive are the calls of the source. The rule behind the calls is not given here.
